# Measured values reported in paper PMC12426595 (Cancer Research Communications, 2025).
# Amino acid sequences for entries named in this document (tags omitted).
# UniProt Q9Y6L6, whole entry: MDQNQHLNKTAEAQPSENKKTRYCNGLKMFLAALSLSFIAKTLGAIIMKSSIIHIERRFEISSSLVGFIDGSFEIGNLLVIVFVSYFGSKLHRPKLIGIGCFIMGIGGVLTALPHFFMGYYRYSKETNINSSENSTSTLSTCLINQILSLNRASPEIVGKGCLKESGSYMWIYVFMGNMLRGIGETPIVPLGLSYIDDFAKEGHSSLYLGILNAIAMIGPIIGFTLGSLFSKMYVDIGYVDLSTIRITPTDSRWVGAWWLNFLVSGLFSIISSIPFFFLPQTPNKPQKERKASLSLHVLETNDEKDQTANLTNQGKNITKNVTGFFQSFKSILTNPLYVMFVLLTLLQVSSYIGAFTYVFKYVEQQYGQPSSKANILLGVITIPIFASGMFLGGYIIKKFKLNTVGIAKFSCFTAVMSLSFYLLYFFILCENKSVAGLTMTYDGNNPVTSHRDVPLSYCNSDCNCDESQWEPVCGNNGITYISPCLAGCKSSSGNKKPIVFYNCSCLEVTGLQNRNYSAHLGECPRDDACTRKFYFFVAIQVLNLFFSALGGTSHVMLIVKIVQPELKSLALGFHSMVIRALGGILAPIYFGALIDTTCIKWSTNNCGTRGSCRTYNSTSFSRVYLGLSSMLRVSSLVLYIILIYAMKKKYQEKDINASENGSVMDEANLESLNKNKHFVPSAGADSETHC
# UniProt Q9NPD5, whole entry: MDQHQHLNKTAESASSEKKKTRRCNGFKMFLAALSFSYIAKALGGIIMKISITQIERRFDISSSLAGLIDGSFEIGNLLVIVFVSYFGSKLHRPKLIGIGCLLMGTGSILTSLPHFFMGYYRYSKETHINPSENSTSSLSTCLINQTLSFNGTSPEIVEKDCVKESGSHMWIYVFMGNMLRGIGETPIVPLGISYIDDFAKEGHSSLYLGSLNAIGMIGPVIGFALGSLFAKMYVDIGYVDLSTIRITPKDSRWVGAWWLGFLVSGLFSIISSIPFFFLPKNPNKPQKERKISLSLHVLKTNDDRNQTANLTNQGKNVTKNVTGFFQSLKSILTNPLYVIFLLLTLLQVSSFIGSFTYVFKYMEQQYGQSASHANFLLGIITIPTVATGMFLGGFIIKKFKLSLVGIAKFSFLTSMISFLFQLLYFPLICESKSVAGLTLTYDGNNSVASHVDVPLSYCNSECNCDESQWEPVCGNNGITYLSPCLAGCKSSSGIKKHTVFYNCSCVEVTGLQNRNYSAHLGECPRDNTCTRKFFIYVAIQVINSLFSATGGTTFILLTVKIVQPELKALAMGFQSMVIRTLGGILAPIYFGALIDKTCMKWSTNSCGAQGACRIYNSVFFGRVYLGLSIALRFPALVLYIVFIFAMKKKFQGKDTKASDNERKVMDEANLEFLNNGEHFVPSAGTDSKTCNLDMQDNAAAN
# UniProt P51813, whole entry: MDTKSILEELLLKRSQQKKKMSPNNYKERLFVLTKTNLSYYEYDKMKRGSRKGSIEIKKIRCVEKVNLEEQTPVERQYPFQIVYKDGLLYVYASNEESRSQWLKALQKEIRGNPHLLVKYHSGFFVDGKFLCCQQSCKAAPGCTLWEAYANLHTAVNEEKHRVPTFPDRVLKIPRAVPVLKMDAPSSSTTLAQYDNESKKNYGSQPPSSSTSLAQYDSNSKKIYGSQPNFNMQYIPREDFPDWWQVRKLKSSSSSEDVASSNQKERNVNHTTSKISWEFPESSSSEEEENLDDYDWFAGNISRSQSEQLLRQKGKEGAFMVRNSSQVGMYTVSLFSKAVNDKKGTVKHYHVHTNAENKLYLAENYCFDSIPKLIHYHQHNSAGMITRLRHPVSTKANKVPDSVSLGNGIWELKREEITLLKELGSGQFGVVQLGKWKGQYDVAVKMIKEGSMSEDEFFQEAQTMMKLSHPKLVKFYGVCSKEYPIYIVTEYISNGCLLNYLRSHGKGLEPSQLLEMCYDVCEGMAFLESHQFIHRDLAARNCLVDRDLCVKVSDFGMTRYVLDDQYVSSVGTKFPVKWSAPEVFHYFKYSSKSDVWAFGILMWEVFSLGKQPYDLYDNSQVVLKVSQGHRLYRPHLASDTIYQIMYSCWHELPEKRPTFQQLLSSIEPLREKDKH
# UniProt Q06187, whole entry: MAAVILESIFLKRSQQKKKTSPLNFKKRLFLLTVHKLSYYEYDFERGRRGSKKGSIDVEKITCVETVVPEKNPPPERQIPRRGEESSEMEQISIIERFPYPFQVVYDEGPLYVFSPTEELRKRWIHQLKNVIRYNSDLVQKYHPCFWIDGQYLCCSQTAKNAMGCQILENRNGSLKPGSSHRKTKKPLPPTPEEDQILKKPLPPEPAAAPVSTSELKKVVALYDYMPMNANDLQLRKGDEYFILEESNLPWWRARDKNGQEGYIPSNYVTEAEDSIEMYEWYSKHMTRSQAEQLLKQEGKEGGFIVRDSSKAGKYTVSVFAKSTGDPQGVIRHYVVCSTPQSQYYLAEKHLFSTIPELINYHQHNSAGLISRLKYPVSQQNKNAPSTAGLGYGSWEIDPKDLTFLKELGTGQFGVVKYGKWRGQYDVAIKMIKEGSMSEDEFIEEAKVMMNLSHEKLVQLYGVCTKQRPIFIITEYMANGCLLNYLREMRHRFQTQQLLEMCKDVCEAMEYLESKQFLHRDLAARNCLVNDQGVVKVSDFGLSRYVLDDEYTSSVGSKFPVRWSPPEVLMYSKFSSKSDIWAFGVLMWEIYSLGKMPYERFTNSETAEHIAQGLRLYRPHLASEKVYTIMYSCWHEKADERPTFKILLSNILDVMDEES
# pEC50, pIC50: −log10 of the molar value. Marks after values point to notes of the source that are not given here.
# How the values were obtained:
# OATP1B1 [1] = biological target: T1, OATP1B1 (Homo sapiens, UniProt Q9Y6L6); assay: Competitive counterflow transport, OATP1B1; conditions: HEK293 cells overexpressing OATP1B1
# OATP1B1 [2] = biological target: T1, OATP1B1; assay: Transport inhibition assay, OATP1B1; conditions: read-out: IC50 OATP1B1 transport inhibition; 8-FcA as test substrate; HEK293 cells
# [3] = In vivo pharmacokinetics of TL-895 in mice; conditions: for increase in systemic exposure (AUC), CYP3A(−/−) vs wild type: FVB
# OATP1B3 [4] = biological target: T2, OATP1B3 (Homo sapiens, UniProt Q9NPD5); assay: Competitive counterflow transport, OATP1B3; conditions: HEK293 cells overexpressing OATP1B3
# OATP1B3 [5] = biological target: T2, OATP1B3; assay: Transport inhibition assay, OATP1B3; conditions: read-out: IC50 OATP1B3 transport inhibition; 8-FcA as test substrate; HEK293 cells
# recombinant human BMX = recombinant human BMX (Homo sapiens, UniProt P51813); assay: HotSpot Kinase Assay, BMX
# OATP1B-type transporters = assay: Basic model DDI assessment (Cmax/IC50 ratios and R values); conditions: OATP1B-type transporter inhibition
# LYN kinase = assay: KdELECT assay, LYN kinase; conditions: relevant range of concentrations
# BMX = assay: KINOMEscan binding, BMX; conditions: TL-895 500 nmol/L
# [6] = biological target: BMX-NanoLuc Fusion Vector in HEK293 cells (Homo sapiens, UniProt P51813); assay: NanoBRET intracellular binding assay, BMX
# BTK = assay: KINOMEscan binding, BTK; conditions: TL-895 500 nmol/L
# recombinant human BTK = recombinant human BTK (Homo sapiens, UniProt Q06187); assay: HotSpot Kinase Assay, BTK
# [7] = biological target: BTK-NanoLuc Fusion Vector in HEK293 cells (Homo sapiens, UniProt Q06187); assay: NanoBRET intracellular binding assay, BTK
# [8] = C57BL/6 WT, female, 3 mg/kg oral
# [9] = C57BL/6 WT, female, 10 mg/kg oral
# [10] = C57BL/6 WT, male, 10 mg/kg oral
# [11] = FVB CYP3A(−/−), female, 3 mg/kg oral
# [12] = FVB CYP3A(−/−), male, 3 mg/kg oral
compound,measurement,setting,value
C=CC(=O)N1CCC(F)(CNc2ncnc(N)c2-c2ccc(Oc3ccccc3)cc2)CC1,"EβG efflux in competitive counterflow (substrate status), OATP1B1",OATP1B1 [1],induces EβG efflux
same,pIC50,OATP1B1 [2],5.44
same,AUC,[3]; [8],110 ± 49.7 ng·h/mL
same,Cmax,[3]; [8],237 ± 96.3 ng/mL
same,AUC,[3]; [9],869 ± 75.0 ng·h/mL
same,Cmax,[3]; [9],509 ± 62.2 ng/mL
same,AUC,"[3]; C57BL/6 WT, male, 3 mg/kg oral",95.7 ± 9.55 ng·h/mL
same,Cmax,"[3]; C57BL/6 WT, male, 3 mg/kg oral",122 ± 31.6 ng/mL
same,AUC,[3]; [10],693 ± 94.2 ng·h/mL
same,Cmax,[3]; [10],276 ± 36.5 ng/mL
same,AUC,[3]; [11],"1,130 ± 78.8****^, #### ng × h/mL"
same,Cmax,[3]; [11],"345 ± 49.8***^, #### ng/mL"
same,AUC,[3]; [12],571 ± 72.1 ng·h/mL
same,Cmax,[3]; [12],181 ± 13.6 ng/mL
same,AUC,"[3]; FVB WT, female, 3 mg/kg oral",246 ± 16.1 ng·h/mL
same,Cmax,"[3]; FVB WT, female, 3 mg/kg oral",89.3 ± 10.0 ng/mL
same,AUC,"[3]; FVB WT, male, 3 mg/kg oral",318 ± 40.0 ng·h/mL
same,Cmax,"[3]; FVB WT, male, 3 mg/kg oral",96.7 ± 9.15 ng/mL
same,AUC,"[3]; NSG WT, female, 3 mg/kg oral",414 ± 17.5 ng·h/mL
same,Cmax,"[3]; NSG WT, female, 3 mg/kg oral",176 ± 19.3 ng/mL
same,AUC,"[3]; NSG WT, female, 10 mg/kg oral","1,220 ± 86.9 ng × h/mL"
same,Cmax,"[3]; NSG WT, female, 10 mg/kg oral",279 ± 37.1 ng/mL
same,AUC,"[3]; NSG WT, male, 3 mg/kg oral",395 ± 131 ng·h/mL
same,Cmax,"[3]; NSG WT, male, 3 mg/kg oral",190 ± 32.3 ng/mL
same,AUC,"[3]; NSG WT, male, 10 mg/kg oral",681 ± 55.8 ng·h/mL
same,Cmax,"[3]; NSG WT, male, 10 mg/kg oral",254 ± 28.6 ng/mL
same,"increase in systemic exposure (AUC), CYP3A(−/−) vs wild type","[3]; female mice, 3 mg/kg oral",4.6 fold
same,"increase in systemic exposure (AUC), CYP3A(−/−) vs wild type","[3]; male mice, 3 mg/kg oral, 3 mg/kg",1.8 fold
same,"EβG efflux in competitive counterflow (substrate status), OATP1B3",OATP1B3 [4],but not by OATP1B3
same,pIC50,OATP1B3 [5],5.39
same,pEC50,"recombinant human BMX; read-out: EC50 against BMX (HotSpot Kinase Assay), 10 μmol/L ATP",9.28
same,pIC50,"recombinant human BMX; read-out: IC50 BMX, kinase assay, in abstract",9.28
same,R values,OATP1B-type transporters,≤ 1.1
same,inhibition of LYN kinase,LYN kinase,insensitive to inhibition
same,"%Ctrl, BMX",BMX,3.9%
same,pEC50,"[6]; read-out: EC50 BMX (NanoBRET intracellular binding), HEK293 cells, 60 minutes",8.80
same,pIC50,"[6]; read-out: IC50 BMX, BRET assay, in abstract",8.80
same,"%Ctrl, BTK",BTK,0.3%
same,pEC50,"recombinant human BTK; read-out: EC50 against BTK (HotSpot Kinase Assay), 10 μmol/L ATP",8.52
same,pIC50,"recombinant human BTK; read-out: IC50 BTK, kinase assay, in abstract",8.52
same,pEC50,"[7]; read-out: EC50 BTK (NanoBRET intracellular binding), HEK293 cells, 60 minutes",8.17
same,pIC50,"[7]; read-out: IC50 BTK, BRET assay, in abstract",8.17
